# Test results reported in PubChem BioAssay AID588795 (National Center for Advancing Translational Sciences (NCATS), 2011).
# Amino acid sequences for entries named in this document (tags omitted).
# UniProt P39748, whole entry: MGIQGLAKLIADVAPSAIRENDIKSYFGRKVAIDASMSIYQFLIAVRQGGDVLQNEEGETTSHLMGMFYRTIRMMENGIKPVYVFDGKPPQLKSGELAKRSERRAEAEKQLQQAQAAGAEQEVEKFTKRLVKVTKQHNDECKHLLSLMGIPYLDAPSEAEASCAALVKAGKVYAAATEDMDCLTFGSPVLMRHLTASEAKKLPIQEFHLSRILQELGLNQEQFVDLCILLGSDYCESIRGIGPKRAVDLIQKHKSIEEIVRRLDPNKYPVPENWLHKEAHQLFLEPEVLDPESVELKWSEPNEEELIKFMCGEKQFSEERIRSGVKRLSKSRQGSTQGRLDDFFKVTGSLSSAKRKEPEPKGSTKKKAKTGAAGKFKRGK
# Only a part is listed here, and it is no random draw. The source made the active and inactive calls. The call rests on the fitted dose curve; in most records, active means well fitted inhibition curve with a large enough effect; inconclusive means small, poorly fitted or top-dose-only effect; inactive means no such curve, though single readings can be large or run the other way. Where a call stands in place of a potency, no number is given.
# Target: Flap endonuclease 1 (Homo sapiens) (UniProt P39748)
# Test: qHTS Assay for the Inhibitors of Human Flap endonuclease 1 (FEN1). Further: nearly all actives have a fitted effect of over 65% in size.
# Settings: Recombinant FEN1 flap cleavage, fluorescence, 15 min; series mostly up to 114 µM
# Potency means the concentration at half of the fitted maximal effect.
row,SMILES,Potency
1,CCN(CC)CCCOC(=O)C(O)(c1ccccc1)c1ccccc1,inactive
2,Cc1cc(C)cc(OP(C)(N)=O)c1 (stereo unspecified),inactive
3,COc1ccccc1OP(C)(=O)Nc1cc(Cl)ccc1C (stereo unspecified),inactive
4,COc1ccc(OP(C)(=O)Nc2cccc(F)c2)cc1 (stereo unspecified),inactive
5,COc1ccccc1OP(C)(=O)Nc1ccc(C)cc1 (stereo unspecified),inactive
6,Cc1ccc(NP(C)(=O)Oc2ccccc2)c(C)c1 (stereo unspecified),inactive
7,CCOC(=O)c1ccc(NP(C)(=O)Oc2ccccc2)cc1 (stereo unspecified),inactive
8,O=[N+]([O-])c1ccc2c(c1)C=Nc1ccccc1O2,inactive
9,CC(C)(C)c1ccc(OP(C)(=O)Nc2ccc(SC(F)(F)F)cc2)cc1 (stereo unspecified),inactive
10,O=[N+]([O-])c1cc([N+](=O)[O-])c(Nc2cccnc2)c([N+](=O)[O-])c1,inactive
11,CP(=O)(Nc1ccccc1Br)Oc1ccccc1 (stereo unspecified),inactive
12,COc1ccccc1OP(C)(=O)Nc1ccccc1 (stereo unspecified),inactive
13,CP(=S)(Nn1cnnc1)Oc1ccccc1 (stereo unspecified),inactive
14,CP(=O)(Nc1ccccn1)Oc1ccc(Cl)cc1 (stereo unspecified),inactive
15,CCOC(=O)c1ccc(NP(C)(=O)Oc2ccc(OC)cc2)cc1 (stereo unspecified),inactive
16,O=[N+]([O-])c1cc([N+](=O)[O-])c(O)c([N+](=O)[O-])c1.c1ccc(Oc2ccncc2)cc1,inactive
17,CP(=O)(NC(=O)Nc1ccccc1)Oc1ccccc1 (stereo unspecified),inactive
18,CCc1ccc(OP(C)(=O)N2CCN(c3ccc([N+](=O)[O-])cc3)CC2)cc1 (stereo unspecified),inactive
19,Cc1cccc(C)c1OP(C)(=O)Nc1ccc(SC(F)(F)F)cc1 (stereo unspecified),inactive
20,CP(=O)(Nc1ccc(SC(F)(F)F)cc1)Oc1ccc(Cl)cc1 (stereo unspecified),inactive
21,CP(=O)(Oc1ccccc1)OC(c1ccccc1)C(F)(F)F (stereo unspecified),inactive

row,SMILES,Potency
1,Cc1nc2ccc3ccccc3c2s1.O=[N+]([O-])c1cc([N+](=O)[O-])c(O)c([N+](=O)[O-])c1,inactive
2,O=[N+]([O-])c1cc([N+](=O)[O-])c(-c2cnn(-c3ccccc3)c2)c([N+](=O)[O-])c1,inactive
3,O=[N+]([O-])c1cc([N+](=O)[O-])c(-n2nnc3ccccc32)c([N+](=O)[O-])c1,inactive
4,CCCOc1ccc(NP(C)(=O)Oc2ccc(Cl)cc2)cc1 (stereo unspecified),inactive
5,CP(=O)(Nc1ccc(SC(F)(F)F)cc1)Oc1ccccc1 (stereo unspecified),inactive
6,COc1ccccc1OP(C)(=O)Nc1c(C)cccc1C (stereo unspecified),inactive
7,CN1CCCCC1COC(=O)C1(O)c2ccccc2CCc2ccccc21 (stereo unspecified),inactive
8,CC1=C2N=C(C=C3N=C(C(C)=C4[N-][C@@](C)([C@@H]5N=C1[C@](C)(CCC(=O)NC[C@@H](C)OP(=O)([O-])O[C@H]1[C@@H](O)[C@@H](n6cnc7cc(C)c(C)cc76)O[C@@H]1CO)[C@H]5CC(N)=O)[C@@](C)(CC(N)=O)[C@@H]4CCC(N)=O)[C@@](C)(CC(N)=O)[C@@H]3CCC(N)=O)C(C)(C)[C@@H]2CCC(N)=O.[C-]#N.[Co+3],inactive
9,O=[N+]([O-])c1cc([N+](=O)[O-])c(Nc2nnnn2CCO)c([N+](=O)[O-])c1,inactive
10,CC1=NCCc2c1[nH]c1ccccc21.O=[N+]([O-])c1cc([N+](=O)[O-])c(O)c([N+](=O)[O-])c1,inactive
11,Cc1ccc(C)c(NP(C)(=O)Oc2ccccc2)c1 (stereo unspecified),inactive
12,Cc1cc(C)cc(OP(C)(=O)Nc2ccccn2)c1 (stereo unspecified),inactive
13,CP(=O)(Nc1cccc(Br)c1)Oc1ccccc1 (stereo unspecified),inactive
14,CCOC(=O)c1ccc(NP(C)(=O)Oc2cc(C)cc(C)c2)cc1 (stereo unspecified),inactive
15,Cc1cc(C)cc(OP(C)(=O)Nc2ccc(C)cc2C)c1 (stereo unspecified),inactive
16,COc1ccccc1OP(C)(=O)Nc1cccc(Br)c1 (stereo unspecified),inactive
17,O=C(OCCN1CCN(CCOCc2ccccc2)CC1)C(O)(c1ccccc1)c1ccccc1,inactive
18,CC(C)c1ccc(OP(C)(=O)Nc2ccc(SC(F)(F)F)cc2)cc1 (stereo unspecified),inactive
19,CP(=O)(Nc1ccccc1)Oc1ccc(F)cc1 (stereo unspecified),inactive
20,CCCCCOc1ccc(NP(C)(=O)Oc2ccc(Cl)cc2Cl)cc1 (stereo unspecified),inactive
21,Cc1c([N+](=O)[O-])cc([N+](=O)[O-])c(Br)c1[N+](=O)[O-],inactive

row,SMILES,Potency
1,CCN(CC)CCCOC(=O)C(O)(c1ccccc1)C1CCCCC1 (stereo unspecified),inactive
2,CCOC(=O)c1ccc(NP(C)(=O)Oc2ccc(F)cc2)cc1 (stereo unspecified),inactive
3,COc1ccc(OP(C)(=O)Nc2ccc(SC(F)(F)F)cc2)cc1 (stereo unspecified),inactive
4,Cc1c(C(c2ccc3c(c2)OCO3)c2c(C)n(C)n(-c3ccccc3)c2=O)c(=O)n(-c2ccccc2)n1C.O=[N+]([O-])c1cc([N+](=O)[O-])c(O)c([N+](=O)[O-])c1,inactive
5,O=[N+]([O-])c1ccc(OP2(=O)COCCO2)cc1 (stereo unspecified),inactive
6,Cc1cc(-c2cccc3ccccc23)c(C)cn1.O=[N+]([O-])c1cc([N+](=O)[O-])c(O)c([N+](=O)[O-])c1,inactive
7,CN(C)CCOC(=O)C(O)(c1ccccc1)C1CCCCC1 (stereo unspecified),inactive
8,COc1ccc(NP(C)(=O)Oc2ccccc2OC)cc1 (stereo unspecified),inactive
9,COc1ccc(OP(C)(=O)Nc2cccc(Br)c2)cc1 (stereo unspecified),inactive
10,Cc1ccccc1NP(C)(=O)Nc1ccccc1C,inactive
11,CP(=O)(Nc1ccc2c(c1)OCCO2)Oc1ccccc1 (stereo unspecified),inactive
12,CCOP(C)(=S)SCC(=O)NC(C)(CC)C(=O)O (stereo unspecified),inactive
13,CP(=O)(Nc1ccc(SC(F)(F)F)cc1)Oc1ccc(F)cc1 (stereo unspecified),inactive
14,CN(C)C(=O)c1c([N+](=O)[O-])cc([N+](=O)[O-])cc1[N+](=O)[O-],inactive
15,COc1ccccc1OP(C)(=O)Nc1ccccc1Br (stereo unspecified),inactive
16,CC(C)(C)c1ccc(OP(C)(=O)O)cc1,inactive
17,CP(=O)(Nc1ccc(Cl)cc1)Oc1ccc(F)cc1 (stereo unspecified),inactive
18,COc1ccccc1OP(C)(=O)Nc1c(C)n(C)n(-c2ccccc2)c1=O (stereo unspecified),inactive
19,O=C(OCCCN1CCCC1)C(O)(c1ccccc1)C1CCCCC1 (stereo unspecified),inactive
20,CP(=O)(Oc1ccccc1)N1CCOC1=O (stereo unspecified),inactive
21,CCc1ccc(OP(C)(=O)Nc2cccnc2)cc1 (stereo unspecified),inactive

row,SMILES,Potency
1,CCN(CC)CC(O)COC(=O)C(O)(c1ccccc1)C1CCCCC1 (stereo unspecified),inactive
2,COc1ccc(OP(C)(=O)Nc2ccc(Br)cc2)cc1 (stereo unspecified),inactive
3,CCOC(=O)c1ccc(NP(C)(=O)Oc2ccc(Cl)cc2)cc1 (stereo unspecified),inactive
4,CP(=O)(OC12CC3CC(CC(C3)C1)C2)OC12CC3CC(CC(C3)C1)C2,inactive
5,Nc1ccc2c(ccc3cccnc32)n1.O=[N+]([O-])c1cc([N+](=O)[O-])c(O)c([N+](=O)[O-])c1,inactive
6,CCCCCCCCCCCCCCCC1C[N+](C)(C)CCOP(C)(=O)O1 (stereo unspecified),active: 79.4 µM
7,CP(=O)(Nc1ccc(Cl)cc1Cl)Oc1ccccc1 (stereo unspecified),inactive
8,CP(=O)(OCCOc1ccccc1)OCCOc1ccccc1,inactive
9,COc1ccccc1OP(C)(=O)Nc1ccc(C)c(C)c1 (stereo unspecified),inactive
10,COc1ccc(OP(C)(=O)Nc2ccccc2Br)cc1 (stereo unspecified),inactive
11,Cc1cc(C)cc(OP(C)(=O)Nc2cccc(C(F)(F)F)c2)c1 (stereo unspecified),inactive
12,CP(=O)(Nc1ccccn1)Oc1ccccc1 (stereo unspecified),inactive
13,COc1ccccc1OP(C)(=O)Nc1ccc(C)cc1C (stereo unspecified),inactive
14,CCc1ccc(OP(C)(=O)O)cc1,inactive
15,Cc1c(NP(C)(=O)Oc2ccc(C(C)C)cc2)c(=O)n(-c2ccccc2)n1C (stereo unspecified),inactive
16,COc1ccc(OP(C)(=O)Nc2ccccn2)cc1 (stereo unspecified),inactive
17,CN(C)CCOC(=O)C(O)(c1ccccc1)C1CCCC1 (stereo unspecified),inactive
18,COc1ccccc1OP(C)(=O)Nc1ccc(Br)cc1 (stereo unspecified),inactive
